Results reported in paper PMC4194234 (Psychopharmacology, 2014).

Amino acid sequences for entries named in this document (tags omitted).
UniProt P28223, whole entry: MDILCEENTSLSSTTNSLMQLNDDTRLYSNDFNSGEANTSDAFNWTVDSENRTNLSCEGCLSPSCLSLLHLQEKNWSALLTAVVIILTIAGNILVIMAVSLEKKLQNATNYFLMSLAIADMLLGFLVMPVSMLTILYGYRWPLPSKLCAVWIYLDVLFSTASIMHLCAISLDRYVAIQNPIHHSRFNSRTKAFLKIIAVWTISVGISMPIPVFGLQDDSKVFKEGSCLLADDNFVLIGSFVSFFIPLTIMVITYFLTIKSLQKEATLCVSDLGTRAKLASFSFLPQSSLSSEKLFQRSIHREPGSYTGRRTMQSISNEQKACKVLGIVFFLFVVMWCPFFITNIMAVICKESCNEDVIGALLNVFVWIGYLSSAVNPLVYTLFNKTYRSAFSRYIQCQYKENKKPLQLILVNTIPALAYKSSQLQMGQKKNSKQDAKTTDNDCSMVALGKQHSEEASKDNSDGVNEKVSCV

Molecular target: 5-HT2A receptor (Homo sapiens, UniProt P28223)
Experiment: cell-based

SMILES: COc1ccc2[nH]cc(CCN(C(C)C)C(C)C)c2c1 [Compound 1, N,N-diisopropyl-5-methoxytryptamine]
- EC50: 946 ± 141 nM
